IC50 data for 10 compounds are collected here from patent US8716493B2, “Multicyclic compounds and the use thereof” (Cephalon, Inc., priority 2000, dated 2014).

The chains behind the UniProt entries cited, without tags or fusion partners.
UniProt P09874, whole entry: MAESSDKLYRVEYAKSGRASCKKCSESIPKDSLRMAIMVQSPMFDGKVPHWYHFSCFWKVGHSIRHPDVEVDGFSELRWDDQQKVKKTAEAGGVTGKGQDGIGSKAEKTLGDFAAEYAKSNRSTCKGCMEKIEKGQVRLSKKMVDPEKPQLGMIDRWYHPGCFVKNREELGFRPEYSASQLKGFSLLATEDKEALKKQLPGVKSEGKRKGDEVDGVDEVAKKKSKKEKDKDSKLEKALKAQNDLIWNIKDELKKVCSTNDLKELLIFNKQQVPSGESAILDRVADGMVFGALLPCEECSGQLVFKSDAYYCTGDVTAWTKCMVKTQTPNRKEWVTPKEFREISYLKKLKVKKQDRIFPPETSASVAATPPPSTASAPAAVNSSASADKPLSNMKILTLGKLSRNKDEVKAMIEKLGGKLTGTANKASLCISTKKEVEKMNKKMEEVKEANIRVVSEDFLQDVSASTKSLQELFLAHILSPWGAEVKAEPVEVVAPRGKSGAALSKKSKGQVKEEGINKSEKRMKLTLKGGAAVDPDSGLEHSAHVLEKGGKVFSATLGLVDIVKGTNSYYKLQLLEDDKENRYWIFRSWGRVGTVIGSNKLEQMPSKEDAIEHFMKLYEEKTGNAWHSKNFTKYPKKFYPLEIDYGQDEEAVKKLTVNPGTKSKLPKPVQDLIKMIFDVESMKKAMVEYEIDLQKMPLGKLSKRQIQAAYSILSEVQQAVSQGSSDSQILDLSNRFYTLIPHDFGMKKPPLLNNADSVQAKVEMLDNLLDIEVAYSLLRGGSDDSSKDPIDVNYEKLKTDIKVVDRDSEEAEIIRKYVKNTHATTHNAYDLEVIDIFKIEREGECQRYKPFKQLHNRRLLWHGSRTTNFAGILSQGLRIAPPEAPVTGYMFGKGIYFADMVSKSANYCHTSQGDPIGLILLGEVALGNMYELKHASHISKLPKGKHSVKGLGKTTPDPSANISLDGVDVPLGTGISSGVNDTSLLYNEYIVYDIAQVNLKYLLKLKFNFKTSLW

The target in this assay is recombinant human PARP (Homo sapiens, UniProt P09874). Put plainly: Measurement of PARP enzymatic activity (transfer of radiolabeled ADP-ribose from NAD+ to protein acceptor). The assay is classed as biochemical. Particulars: read-out: PARP IC50.

Usually IC50 stands for the concentration that inhibits the measured activity by half.

Where two headings read alike, the source gives them in different places.

As for `O=C1NC(=O)c2c1c1c(c3[nH]c(Br)c(Br)c23)CCC1`, the half-inhibitory concentration (IC50) (Table 4) worked out at 20 nM. Take `C[N+](C)(C)Cc1ccc2[nH]c3c4c(c5c(c3c2c1)C(=O)NC5=O)CCC4`: the concentration for half-maximal inhibition (IC50) (Table 2) stood at 73 nM. As to `O=C1c2c3c(c4[nH]c5ccccc5c4c2C(=O)N1CO)CCC3`, the IC50 (Table 3) stood at 138 nM. Regarding `O=C1CCN(C(=O)c2ccc3[nH]c4c5c(c6c(c4c3c2)C(=O)NC6=O)CCC5)CC1`, the IC50 (Table 2) worked out at 14 nM. Still for that read-out and setting: next, `O=Cc1ccc2[nH]c3c4c(c5c(c3c2c1)C(=O)NC5=O)CCC4`: 29 nM.

In the case of `COC(=O)CCCCC(=O)NCc1ccc2[nH]c3c4c(c5c(c3c2c1)C(=O)NC5=O)CCC4`, under “Table 2”, the IC50 was 62 nM. Consider `NCCC(=O)NCc1ccc2[nH]c3c4c(c5c(c3c2c1)C(=O)NC5=O)CCC4`, for which the half-inhibitory concentration (IC50) (Table 2) came to 75 nM. As to `NCCCC[C@H](N)C(=O)N1C(=O)c2c3c(c4[nH]c5ccc(F)cc5c4c2C1=O)CCC3`, the IC50 (Table 3, tested form: 2 HCl) turned out to be 48 nM.

`O=C(NCCc1c[nH]cn1)c1ccc2[nH]c3c4c(c5c(c3c2c1)C(=O)NC5=O)CCC4`: the IC50 (Table 2) was 15 nM. For `O=C1c2c3c(c4[nH]c5ccccc5c4c2C(=O)N1CCCOCc1ccccc1)CCC3`, the IC50 (Table 1) came to 720 nM.
